## Yeast mating assay 1: variants of the scFv Ab-14

All variants were tested on one target, the spike HR2 peptide PDVDLGDISGINAS (SARS-CoV-2).

Ab-14 is the parent antibody, in scFv form: VH, then the linker GGGGSGGGGSGGGGS, then VL. The heavy chain is unchanged in all variants.
VH: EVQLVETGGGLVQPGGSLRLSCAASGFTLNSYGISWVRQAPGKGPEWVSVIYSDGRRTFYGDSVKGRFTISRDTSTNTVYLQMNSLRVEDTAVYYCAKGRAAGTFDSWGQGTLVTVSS
VL: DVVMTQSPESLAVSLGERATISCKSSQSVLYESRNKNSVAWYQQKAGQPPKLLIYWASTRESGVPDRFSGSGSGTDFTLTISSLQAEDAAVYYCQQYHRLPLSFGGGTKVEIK

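The parent was found by panning a naive human phage display library on the peptide. AAYL50 was designed without a model: most single CDR substitutions and a random sample of double and triple ones. AlphaSeq pools MATa yeast showing the antibodies with MATalpha yeast showing the peptide. Binding brings cells together so that they mate, and sequencing counts the barcode pairs among the diploids. Each replicate has its own calibration line, from reference interactions of the BCL2 family. Mating was done three times.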

Each variant is given by its three light chain CDRs, as the data file delimits them; those of the parent are KSSQSVLYESRNKNSVA, WASTRES, QQYHRLPLS.
This list gathers variants with a substitution at A40 (VL, numbered from residue 1).
Each Kd is an estimate from the mating assay, the geometric mean of the replicates in which the pair was seen; lower is stronger.
An entry "no signal" has no value in the source: the pair was not observed among the diploids in any replicate. This suggests poor binding but is not conclusive.
For reference, the parent read 4.4 nM as the reference entry and 48 nM as a member of this library.
As a blank, each scFv also met three strains without target: over library AAYL50, 18% of these pairings were detected, typically at 15 µM and seldom below 970 nM.

CDR-L1	CDR-L2	CDR-L3	Kd (apparent)	replicates with signal
KSSQSVLYESRNKNHVI	WASTRES	QQYHRLPLK	no signal	0/3
KSSQSVLYESRNKNSVS	VASTRES	QQYHHLPLS	no signal	0/3
KSSQHVQYESRNKNSVV	WASTRES	QQYHRLPLS	no signal	0/3
KSSQNVLHESRNKNSVT	WASTRES	QQYHRLPLS	no signal	0/3
KSSQSVLYESRNVNSVT	WASTRES	QQAHRLPLS	no signal	0/3
KSSQSPLYESRNKNSVP	WASTRES	QQYHFLPLS	no signal	0/3
KSSQSVLYESRGKNSVN	EASTRES	QQYHRLPLS	13 µM	2/3
KSSQSVLYESRNKNSVL	GASTRES	QQYHRLPLS	11 µM	3/3
KSSQSVLYESRNKNSVH	WASTRES	QQYHRLPLS	16 µM	1/3
KSSRSVLYESRNKNSVI	VASTRES	QQYHRLPLS	no signal	0/3
KSSQSVLYEVRNKNSVL	NASTRES	QQYHRLPLS	14 µM	2/3
FSSQSVLYESRNKNSVC	WASTRES	QFYHRLPLS	29 µM	2/3
KSSQSVKYERRNKNSVS	WASTRES	QQYHRLPLS	30 µM	1/3
KSSQSVLYESRNKNSKS	WASTRES	QQYPRLPLS	no signal	0/3
KSSQSVLYESRNKNSVQ	CCSTRES	QQYHRLPLS	60 µM	1/3
KSSQSVLYESRNKNSVS	WASTHES	QQYHTLPLS	no signal	0/3
GSSQSVLYEARNKNSVC	WASTRES	QQYHRLPLS	50 µM	1/3
YSSQSVLYESRNKNSVS	WASTRES	QQYQRLPLS	no signal	0/3
KSSQSVLYESRNKNSVF	WASTRES	QQYHRLFLS	no signal	0/3
KSSQSVLYESRYKNSVT	WASTRES	QQYHRWPLS	9.7 µM	1/3
KSSQSVLYESVNKNSVY	WASTREV	QQYHRLPLS	no signal	0/3
KSSQSVLYESRNKNSPT	WASTREK	QQYHRLPLS	150 µM	1/3
KSSQSVLYESRNKNSVN	WASTRES	QFYHRVPLS	210 µM	1/3
KSSQSVLYEERNKNSVN	WASQRES	QQYHRLPLS	no signal	0/3
KSSQSVLYRSRNKNLVN	WASTRES	QQYHRLPLS	no signal	0/3
KSSFSVLYESSNKNSVP	WASTRES	QQYHRLPLS	2.5 µM	1/3
KSSQSVLYESRFKNSVN	SASTRES	QQYHRLPLS	no signal	0/3
KSSQSVLTESRNKNSVL	WASTRES	QQYHRLPIS	18 µM	1/3
KYSQSVLYESRNKNSME	WASTRES	QQYHRLPLS	no signal	0/3
KSSQSVLIESRNKNSVK	WASTRES	QQYHRLPLF	18 µM	2/3
KSSQSVLYESRNKNSVR	WAQTRES	QQYHRLPLS	no signal	0/3
KSSQSVLYESRNKNSVR	WASTRGS	QQHHRLPLS	no signal	0/3
KSSQSVLYESRNKNSDW	WASTRES	QQYHALPLS	290 µM	2/3
KSSQSVLYESRNRNSVR	WASTRES	QQYHRLPLS	no signal	0/3
KSSQSVLYESQNKNSEH	WASTRES	QQYHRLPLS	1.1 µM	2/3
KSSLSVLYESRNKNSVN	WASTRES	QQYHRLPLS	210 µM	1/3
KSSQSVLYESLNKNSVM	WASTRES	QQYHRLPLS	35 µM	3/3
KSSQSVLYESRNKWSVY	WASTDES	QQYHRLPLS	no signal	0/3
KSSQSVLYESRNKNSVS	WTSTRES	QQYHRLPLE	no signal	0/3
KSSQSVLFESRNKLSVL	WASTRES	QQYHRLPLS	22 µM	1/3
KSCQSVLYESRNKWSVC	WASTRES	QQYHRLPLS	no signal	0/3
KSSQSVLYLSRNKCSVT	WASTRES	QQYHRLPLS	no signal	0/3
KSSQSVLYESRNDNSVL	WASTRES	QQYHVLPLS	8.4 µM	1/3
KSYQSMLYESRNKNSVK	WASTRES	QQYHRLPLS	7.7 µM	2/3
KSSQSFLYESRNKNSVI	WASTRES	QQYHRLSLS	3.9 µM	2/3
KSSQSVLYESRNKNTVF	WASTRES	QQYHRQPLS	86 µM	2/3
KSSQSVLYESRNKNSVG	WFITRES	QQYHRLPLS	no signal	0/3
KSSQSVLYSSRNKNSVW	WASTREV	QQYHRLPLS	1.5 µM	1/3
KSSQSVLYESRNKNDVR	WASTRES	QQYHRLYLS	no signal	0/3
KSSQSVRYESRNKNSVS	WASTREV	QQYHRLPLS	no signal	0/3
KSSQSVLYESRNKNEVV	WASTRYS	QQYHRLPLS	no signal	0/3
KSSQSVLYESRNKNSVE	WASTRES	QIYHRLPLS	240 nM	1/3
KSSQSVKYESRNKNSVC	VASTRES	QQYHRLPLS	720 nM	1/3
TSSQSVLYESRNKNSVP	WASTRES	QQDHRLPLS	30 µM	2/3
KSSQSVLSESRNKNSVV	WASTRES	QQYHRLCLS	no signal	0/3
KSSQSVLYESRNKNSVC	WASTRES	QQYHRLPLS	no signal	0/3
KSSQSVLYESRNANSVE	WASFRES	QQYHRLPLS	2.4 µM	1/3
KSSQSVLYELRNKNCVT	WASTRES	QQYHRLPLS	230 µM	3/3
KSSQSVLYESRNKHLVD	WASTRES	QQYHRLPLS	no signal	0/3
KSSQSVLYESRNKNSVI	WASTRES	QQYKLLPLS	no signal	0/3
KSSQSVLYESRYKNSVM	WASTSES	QQYHRLPLS	no signal	0/3
KSSQSVLYESRCKNSVH	WASTRES	QQYHRLPSS	3.7 µM	1/3
KNSQSVLYESRNKNSVP	WASTRES	QQYHRFPLS	no signal	0/3
KSSQSVLYESRNKNSVM	WASTRES	QQYHRLPLF	2.2 µM	1/3
KSSQSVLYESRNKNSVN	WASTRLS	QQYHRLPLS	no signal	0/3
KSSQSVLYESRNKNSVF	WASTRES	QQNHRLPLS	160 nM	1/3
KSSQSVTYESRNKNSVS	WASTRES	QQYHILPLS	1.4 µM	3/3
KKSQSVLYESRNKNSVL	WASTRES	QQYHRLWLS	no signal	0/3

The first 10 entries again:

CDR-L1	CDR-L2	CDR-L3	Kd (apparent)	replicates with signal
KSSQSVLYESRNKNHVI	WASTRES	QQYHRLPLK	no signal	0/3
KSSQSVLYESRNKNSVS	VASTRES	QQYHHLPLS	no signal	0/3
KSSQHVQYESRNKNSVV	WASTRES	QQYHRLPLS	no signal	0/3
KSSQNVLHESRNKNSVT	WASTRES	QQYHRLPLS	no signal	0/3
KSSQSVLYESRNVNSVT	WASTRES	QQAHRLPLS	no signal	0/3
KSSQSPLYESRNKNSVP	WASTRES	QQYHFLPLS	no signal	0/3
KSSQSVLYESRGKNSVN	EASTRES	QQYHRLPLS	13 µM	2/3
KSSQSVLYESRNKNSVL	GASTRES	QQYHRLPLS	11 µM	3/3
KSSQSVLYESRNKNSVH	WASTRES	QQYHRLPLS	16 µM	1/3
KSSRSVLYESRNKNSVI	VASTRES	QQYHRLPLS	no signal	0/3

Values reported by Engelhart et al. 2022, doi:10.1038/s41597-022-01779-4 (FLAb copy).